ChEMBL document CHEMBL1144939, “Modeling the adenosine receptors: comparison of the binding domains of A2A agonists and antagonists” (J Med Chem, 2003)

The chains behind the UniProt entries cited, without tags or fusion partners.
UniProt P29274, whole entry T88E: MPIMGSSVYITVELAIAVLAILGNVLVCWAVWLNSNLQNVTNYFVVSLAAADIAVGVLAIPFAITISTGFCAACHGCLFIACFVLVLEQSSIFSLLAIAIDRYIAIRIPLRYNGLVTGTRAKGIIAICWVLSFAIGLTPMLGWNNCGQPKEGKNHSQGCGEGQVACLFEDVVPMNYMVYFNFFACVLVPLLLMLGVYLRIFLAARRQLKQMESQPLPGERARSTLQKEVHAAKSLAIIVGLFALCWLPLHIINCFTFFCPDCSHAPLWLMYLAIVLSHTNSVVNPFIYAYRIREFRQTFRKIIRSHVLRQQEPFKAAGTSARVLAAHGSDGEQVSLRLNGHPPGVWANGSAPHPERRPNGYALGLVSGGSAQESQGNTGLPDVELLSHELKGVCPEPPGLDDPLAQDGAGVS
UniProt P29274, whole entry H278D: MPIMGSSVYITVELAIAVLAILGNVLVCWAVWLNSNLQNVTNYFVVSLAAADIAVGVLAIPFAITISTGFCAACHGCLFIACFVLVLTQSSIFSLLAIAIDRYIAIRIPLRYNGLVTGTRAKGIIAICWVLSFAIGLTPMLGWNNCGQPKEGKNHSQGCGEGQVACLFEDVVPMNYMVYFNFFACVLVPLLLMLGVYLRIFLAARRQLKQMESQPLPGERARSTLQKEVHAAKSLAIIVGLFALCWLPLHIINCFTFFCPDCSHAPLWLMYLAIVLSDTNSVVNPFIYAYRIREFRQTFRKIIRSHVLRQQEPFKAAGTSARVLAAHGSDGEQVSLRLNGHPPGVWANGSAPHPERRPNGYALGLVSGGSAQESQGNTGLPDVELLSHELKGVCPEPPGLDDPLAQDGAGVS
UniProt P29274, whole entry Q89D: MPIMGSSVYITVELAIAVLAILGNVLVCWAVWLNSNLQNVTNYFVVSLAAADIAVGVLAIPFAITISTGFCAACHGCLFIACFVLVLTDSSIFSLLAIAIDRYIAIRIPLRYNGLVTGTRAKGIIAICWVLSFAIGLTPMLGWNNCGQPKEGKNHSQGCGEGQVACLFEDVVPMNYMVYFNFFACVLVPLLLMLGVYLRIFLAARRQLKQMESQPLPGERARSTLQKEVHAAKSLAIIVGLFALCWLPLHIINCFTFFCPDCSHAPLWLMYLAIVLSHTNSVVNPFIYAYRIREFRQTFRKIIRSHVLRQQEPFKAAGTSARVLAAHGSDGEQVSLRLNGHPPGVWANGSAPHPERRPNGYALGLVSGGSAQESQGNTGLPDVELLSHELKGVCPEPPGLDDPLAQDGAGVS
UniProt P29274, whole entry S277E: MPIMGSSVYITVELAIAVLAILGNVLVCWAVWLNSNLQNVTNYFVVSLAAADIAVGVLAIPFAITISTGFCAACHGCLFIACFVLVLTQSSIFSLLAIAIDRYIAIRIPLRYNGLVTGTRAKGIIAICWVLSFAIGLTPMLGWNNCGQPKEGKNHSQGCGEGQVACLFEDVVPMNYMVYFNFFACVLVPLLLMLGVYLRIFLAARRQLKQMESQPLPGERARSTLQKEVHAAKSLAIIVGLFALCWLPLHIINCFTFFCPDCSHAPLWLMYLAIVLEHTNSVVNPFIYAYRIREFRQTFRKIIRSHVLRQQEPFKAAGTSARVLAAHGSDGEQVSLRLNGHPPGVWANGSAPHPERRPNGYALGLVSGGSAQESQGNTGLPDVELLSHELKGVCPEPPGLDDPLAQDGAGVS
UniProt P29274, whole entry H278E: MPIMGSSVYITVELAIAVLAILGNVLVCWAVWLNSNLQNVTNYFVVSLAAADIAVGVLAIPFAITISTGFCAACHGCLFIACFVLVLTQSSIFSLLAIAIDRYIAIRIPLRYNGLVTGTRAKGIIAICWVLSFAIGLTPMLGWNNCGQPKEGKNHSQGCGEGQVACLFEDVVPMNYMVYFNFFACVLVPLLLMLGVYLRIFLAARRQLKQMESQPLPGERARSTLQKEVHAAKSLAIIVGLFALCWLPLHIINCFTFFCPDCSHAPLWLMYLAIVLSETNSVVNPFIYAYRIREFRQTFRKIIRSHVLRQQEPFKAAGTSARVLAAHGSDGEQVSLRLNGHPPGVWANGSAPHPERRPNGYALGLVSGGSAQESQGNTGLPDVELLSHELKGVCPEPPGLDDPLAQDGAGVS
UniProt P29274, whole entry T88D: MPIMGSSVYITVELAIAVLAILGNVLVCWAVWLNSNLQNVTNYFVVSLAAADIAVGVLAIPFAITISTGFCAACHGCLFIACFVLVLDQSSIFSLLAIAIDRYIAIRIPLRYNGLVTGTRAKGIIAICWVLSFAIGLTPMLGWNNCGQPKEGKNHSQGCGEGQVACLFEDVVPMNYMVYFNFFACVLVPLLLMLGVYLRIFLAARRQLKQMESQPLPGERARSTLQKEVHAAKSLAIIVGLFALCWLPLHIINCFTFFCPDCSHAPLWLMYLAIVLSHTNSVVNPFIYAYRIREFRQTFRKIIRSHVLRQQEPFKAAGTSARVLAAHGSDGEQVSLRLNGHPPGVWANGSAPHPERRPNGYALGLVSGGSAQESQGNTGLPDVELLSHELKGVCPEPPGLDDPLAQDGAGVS

What was measured:
Adenosine receptor A2a [1] = molecular target: Adenosine receptor A2a (Homo sapiens, UniProt P29274, T88E); test: Binding affinity against T88E human adenosine A2A receptor expressed in CHO cells using [3H]- ZM-241385; type: cell-based
Adenosine receptor A2a [2] = molecular target: Adenosine receptor A2a (Homo sapiens, UniProt P29274, H278D); test: biochemical
Adenosine receptor A2a [3] = molecular target: Adenosine receptor A2a (Homo sapiens, UniProt P29274); test: biochemical
Adenosine receptor A2a [4] = molecular target: Adenosine receptor A2a (Homo sapiens, UniProt P29274, Q89D); test: biochemical
Adenosine receptor A2a [5] = molecular target: Adenosine receptor A2a (Homo sapiens, UniProt P29274, S277E); test: biochemical
Adenosine receptor A2a [6] = molecular target: Adenosine receptor A2a (Homo sapiens, UniProt P29274, H278E); test: biochemical
Adenosine receptor A2a [7] = molecular target: Adenosine receptor A2a (Homo sapiens, UniProt P29274, T88D); test: Binding affinity against T88D human adenosine A2A receptor expressed in CHO cells using [3H]- ZM-241385; type: cell-based

- Ki (Adenosine receptor A2a [1]): 57 µM
- Ki (Adenosine receptor A2a [2]): 121 µM
- Ki (Adenosine receptor A2a [3]): 0.0461 µM
- Ki (Adenosine receptor A2a [4]): 3.6 µM
- Ki (Adenosine receptor A2a [5]): 41 µM
- Ki (Adenosine receptor A2a [6]): 72 µM
- Ki (Adenosine receptor A2a [7]): 4.4 µM
Structure (SMILES): NCCNC(=O)[C@H]1O[C@@H](n2cnc3c(N)ncnc32)[C@H](O)[C@@H]1O
